Measurements: patent US20240398947A1, “CAR T-CELL ADJUVANT THERAPIES” (CytoAgents, Inc., priority 2020, published 2024)

System: CRS
Experiment: Mouse model of CAR T-cell therapy induced CRS (Raji-luc tumor)
Details: IP, BID for 7 days, start about 5 hours prior to CAR-T cell transfer

CC#CC[C@H](C)[C@H](O)/C=C/[C@@H]1[C@H]2c3cccc(CCCC(=O)[O-])c3O[C@H]2C[C@H]1O.[Na+] [GP1681, esuberaprost sodium salt]
undesired cytokine production versus control group: lower
